Source: paper PMC3663649, “Nucleosomal DNA binding drives the recognition of H3K36-methylated nucleosomes by the PSIP1-PWWP domain” (Epigenetics & Chromatin, 2013)

System: GST-PWWP
Test: biotinylated histone H3 peptide pull-down with GST-PWWP lysates
Format: binding, human
Conditions: biotinylated H3 peptides, GST-PWWP (or mutant) lysates, anti-GST immunoblot
Description: Mono-nucleosomes were extracted from HeLa or yeast cells by MNase treatment of lysed cells as previously described. Histone H3 mutants were selected from a mutant library. GA beads (Sigma-Aldrich, St. Louis, MO) were covered with GST-fusion proteins, mixed with mono-nucleosomes and washed. Eluted proteins were analyzed by immunoblotting. HeLa mono-nucleosomes were incubated with premixed GFP-fusion protein and GFP binder beads (ChromoTek, Planegg-Martinsried, Germany) and analyzed in a similar way. Peptide pull-downs were performed as described previously.

- peptide binding in pull-down: to a similar degree
- peptide binding in pull-down (listed as H3KC36me3): binds preferentially
SMILES: CC(C)[C@H](NC(=O)CNC(=O)CNC(=O)[C@@H](NC(=O)[C@H](C)NC(=O)[C@@H]1CCCN1C(=O)[C@H](C)NC(=O)[C@@H](N)CO)[C@@H](C)O)C(=O)N[C@@H](CSCC[N+](C)(C)C)C(=O)N[C@@H](CCCCN)C(=O)N1CCC[C@H]1C(=O)N[C@@H](Cc1c[nH]cn1)C(=O)N[C@@H](CCCNC(=N)N)C(=O)N[C@@H](Cc1ccc(O)cc1)C(=O)N[C@@H](CCCNC(=N)N)C(=O)N1CCC[C@H]1C(=O)NCC(=O)O [H3KC36me3 peptide]
